Measurements published in patent US12528818B2, “Compositions and methods for inhibition of RAS” (Leidos Biomedical Research, Inc., priority 2021, dated 2026).

Key:
[1] = molecular target: T1, GTP-loaded KRAS4b (amino acids 1-169) G12C/C118S protein (Homo sapiens, UniProt P01116, C118S/G12C); assay: Covalent cysteine 12 modification by MALDI-TOF MS, GTP-loaded KRAS G12C; assay type: biochemical; settings: 15 minutes reaction time, compound 95 or later using 1 μM proteins
T1 construct: KRAS4b (amino acids 1-169) G12C/C118S protein; made in house

[2] = molecular target: GDP-loaded KRAS4b (amino acids 1-169) G12C/C118S protein (Homo sapiens, UniProt P01116, C118S/G12C); assay: Covalent cysteine 12 modification by MALDI-TOF MS, GDP-loaded KRAS G12C; assay type: biochemical; settings: 15 minutes reaction time, compound 95 or later using 1 μM proteins
[3] = molecular target: Avi-KRAS G12C (1-169) GppNHp/RAF1 RBD-3xFLAG (52-151) (Homo sapiens, UniProt P01116, G12C); assay: biochemical; settings: Raf1-GppNHp-KRAS G12C disruption, Raf1 RBD-KRAS G12C-GppNHp disruption assay IC50
[4] = molecular target: GppNHp-loaded KRAS4b (amino acids 1-169) G12C/C118S protein (Homo sapiens, UniProt P01116, C118S/G12C); assay: Covalent cysteine 12 modification by MALDI-TOF MS, GppNHp-loaded KRAS G12C; assay type: biochemical; settings: 15 minutes reaction time, compound 95 or later using 1 μM proteins

Row | GTP-KRAS G12C percent of modification [1] | GDP-KRAS G12C percent of modification [2] | IC50 [3] | GppNHp-KRAS G12C percent of modification [4] | SMILES
1 | D (percent of modification <10%) | C (10%≤percent of modification <50%) | < 500 nM | C (10%≤percent of modification <50%) | C=CC(=O)N1CCC(N(CC)c2nc(OC[C@@H]3C[C@@H](F)CN3C)nc3cc(-c4ccc(F)c5sc(N)c(C#N)c45)c(C#N)cc23)[C@H]1COC (stereo partly shown) [Compound 471]
2 | C (10%≤percent of modification <50%) | C (10%≤percent of modification <50%) | < 500 nM | B (50≤percent of modification <70%) | C=CC(=O)N1C[C@@H](F)[C@@H](N(CC)c2nc(OC[C@@]34CCCN3C[C@H](F)C4)nc3c(C#N)c(-c4ccc(F)c5sc(N)c(C#N)c45)c(Cl)cc23)C1 [Compound 380]
3 | C (10%≤percent of modification <50%) | C (10%≤percent of modification <50%) | < 500 nM | C (10%≤percent of modification <50%) | C=CC(=O)N1CCC(N(CC)c2nc(OC[C@@H]3C[C@@H](OC)CN3C)nc3c(F)c(-c4ccc(F)c5sc(N)c(C#N)c45)c(C(F)(F)F)cc23)[C@H]1COC (stereo partly shown) [Compound 427]
4 | B (50≤percent of modification <70%) | A (percent of modification ≥70%) | < 500 nM | A (percent of modification ≥70%) | C=CC(=O)N1C[C@H](C)N(c2nc(OC[C@@]34CCCN3C[C@H](F)C4)nc3c(F)c(-c4ccc(F)c5sc(N)c(C#N)c45)c(C(F)(F)F)cc23)C[C@H]1C [Compound 252, 4-(4-((2S,5R)-4-acryloyl-2,5-dimethylpiperazin-1-yl)-8-fluoro-2-(((2R,7aS)-2-fluorotetrahydro-1H-pyrrolizin-7a(5H)-yl)methoxy)-6-(trifluoromethyl)quinazolin-7-yl)-2-amino-7-fluorobenzo[b]thiophene-3-carbonitrile]
5 | A (percent of modification ≥70%) | A (percent of modification ≥70%) | < 500 nM | A (percent of modification ≥70%) | C=CC(=O)N1C[C@@H](F)[C@@H](N(C)c2nc(OCC34CCCN3CCC4)nc3cc(-c4ccc(F)c5sc(N)c(C#N)c45)c(C(F)(F)F)cc23)C1 [Compound 369]
6 | C (10%≤percent of modification <50%) | A (percent of modification ≥70%) | < 500 nM | A (percent of modification ≥70%) | C=CC(=O)N1C[C@H](C)N(c2nc(OC[C@@]34CCCN3C[C@H](F)C4)nc3cc(-c4ccc(F)c5sc(N)c(C#N)c45)c(C(F)(F)F)cc23)C[C@H]1C [Compound 304]
7 | C (10%≤percent of modification <50%) | C (10%≤percent of modification <50%) | < 500 nM | C (10%≤percent of modification <50%) | C=CC(=O)N1CC[C@@H](N(C)c2nc(OC[C@@]34CCCN3C[C@H](F)C4)nc3c(F)c(-c4ccc(F)c5sc(N)c(C#N)c45)c(F)cc23)C1 [Compound 343]
8 | A (percent of modification ≥70%) | A (percent of modification ≥70%) | < 500 nM | A (percent of modification ≥70%) | C=CC(=O)N1C[C@H](C)N(c2nc(OCC34CCCN3CCC4)nc3c(F)c(-c4ccc(F)c5sc(N)c(C#N)c45)c(C(F)(F)F)cc23)C[C@H]1C [Compound 346]
9 | B (50≤percent of modification <70%) | A (percent of modification ≥70%) | < 500 nM | A (percent of modification ≥70%) | C=CC(=O)N1C[C@@H](F)[C@@H](N(C)c2nc(OC[C@@]34CCCN3C[C@H](F)C4)nc3c(F)c(-c4ccc(F)c5sc(N)nc45)c(C#N)cc23)C1 [Compound 360]
10 | A (percent of modification ≥70%) | A (percent of modification ≥70%) | < 500 nM | A (percent of modification ≥70%) | C=CC(=O)N1C[C@H](F)[C@@H](N(C)c2nc(OC[C@@]34CCCN3C[C@H](F)C4)nc3cc(-c4ccc(F)c5sc(N)nc45)c(C(F)(F)F)cc23)C1 [Compound 335]
11 | B (50≤percent of modification <70%) | A (percent of modification ≥70%) | < 500 nM | A (percent of modification ≥70%) | C=CC(=O)N1C[C@@H](F)[C@@H](N(CC)c2nc(OC[C@@]34CCCN3C[C@H](F)C4)nc3cc(-c4ccc(F)c5sc(N)c(C#N)c45)c(C#N)cc23)C1 [Compound 386]
12 | C (10%≤percent of modification <50%) | A (percent of modification ≥70%) | < 500 nM | B (50≤percent of modification <70%) | C=CC(=O)N1CCC(N(CC)c2nc(OC[C@@]34CCCN3C[C@H](F)C4)nc3cc(-c4ccc(F)c5sc(N)c(C#N)c45)ccc23)[C@H]1COC (stereo partly shown) [Compound 440]
13 | C (10%≤percent of modification <50%) | C (10%≤percent of modification <50%) | < 500 nM | C (10%≤percent of modification <50%) | C=C(F)C(=O)N1CC[C@@H](N(C)c2nc(OC[C@@]34CCCN3C[C@H](F)C4)nc3c(F)c(-c4ccc(F)c5sc(N)nc45)c(C(F)(F)F)cc23)C1 [Compound 308]
14 | C (10%≤percent of modification <50%) | A (percent of modification ≥70%) | < 500 nM | B (50≤percent of modification <70%) | C=CC(=O)N1CCC(N(CC)c2nc(OC[C@@]34CCCN3C[C@H](F)C4)nc3c(C#N)c(-c4ccc(F)c5sc(N)c(C#N)c45)ccc23)[C@H]1COC (stereo partly shown) [Compound 428]
15 | D (percent of modification <10%) | A (percent of modification ≥70%) | < 500 nM | C (10%≤percent of modification <50%) | C=CC(=O)N1C[C@H](C)N(c2nc(OC[C@@]34CCCN3C[C@H](F)C4)nc3cc(-c4ccc(F)c5sc(N)nc45)c(C(F)(F)F)cc23)C[C@H]1C [Compound 299]
16 | B (50≤percent of modification <70%) | A (percent of modification ≥70%) | < 500 nM | B (50≤percent of modification <70%) | C=CC(=O)N1CC[C@@H](N(CC)c2nc(OC[C@@]34CCCN3C[C@H](F)C4)nc3c(F)c(-c4ccc(F)c5sc(N)c(C#N)c45)c(C(F)(F)F)cc23)[C@H]1COC [Compound 442]
17 | A (percent of modification ≥70%) | A (percent of modification ≥70%) | < 500 nM | A (percent of modification ≥70%) | C=CC(=O)N1CC[C@@H]2[C@H]1CN2c1nc(OC[C@@]23CCCN2C[C@H](F)C3)nc2c(F)c(-c3ccc(F)c4sc(N)c(C#N)c34)c(C(F)(F)F)cc12 [Compound 339]
18 | A (percent of modification ≥70%) | A (percent of modification ≥70%) | < 500 nM | A (percent of modification ≥70%) | C=CC(=O)N1C[C@@H](F)[C@@H](N(C)c2nc(OC[C@@]34CCCN3C[C@H](F)C4)nc3c(F)c(-c4ccc(F)c5sc(N)nc45)ccc23)C1 [Compound 353]
19 | C (10%≤percent of modification <50%) | B (50≤percent of modification <70%) | < 500 nM | C (10%≤percent of modification <50%) | C=CC(=O)N1C[C@H](C)N(c2nc(OC[C@@H]3C[C@@H](OC)CN3C)nc3c(F)c(-c4ccc(F)c5sc(N)c(C#N)c45)c(C(F)(F)F)cc23)C[C@H]1C [Compound 408]
20 | A (percent of modification ≥70%) | A (percent of modification ≥70%) | < 500 nM | A (percent of modification ≥70%) | C=CC(=O)N1CCC(N(C)c2nc(OC[C@@H]3C[C@@H](F)CN3C)nc3c(F)c(-c4ccc(F)c5sc(N)c(C#N)c45)ccc23)[C@H]1COC (stereo partly shown) [Compound 423]
21 | A (percent of modification ≥70%) | A (percent of modification ≥70%) | < 500 nM | A (percent of modification ≥70%) | C=CC(=O)N1CCC(N(C)c2nc(OC[C@@H]3CC4(CC4)CN3C)nc3cc(-c4ccc(F)c5sc(N)c(C#N)c45)c(C#N)cc23)[C@H]1COC (stereo partly shown) [Compound 446]
22 | B (50≤percent of modification <70%) | B (50≤percent of modification <70%) | < 500 nM | B (50≤percent of modification <70%) | C=CC(=O)N1C[C@@H](F)[C@@H](N(CC)c2nc(OC[C@@]34CCCN3C[C@H](F)C4)nc3cc(-c4ccc(F)c5sc(N)c(C#N)c45)c(C(F)(F)F)cc23)C1 [Compound 375]
